Data published in patent publication US8618169B2, “Derivatives of N-phenylanthranilic acid and 2-benzimidazolone as potassium channel and/or neuron activity modulators” (Ramot at Tel-Aviv University Ltd., priority 2002, dated 2013).

Target: T1, KCNQ2/3 channels (Homo sapiens, UniProt O43525+O43526)
T1 construct: expressed in transfected cells; host or cells: CHO cells
Assay: KCNQ2/3 current in transfected CHO cells, whole-cell patch-clamp
Type: cell-based

SMILES: O=C(O)Cc1ccccc1Nc1c(Cl)cccc1Cl [Compound 2, diclofenac]
- V50 of KCNQ2/3 activation with compound (50 μM, CHO cells, control −30.9±4.1 mV): −45.4±2.7 mV
- increase of the current amplitude (50 μM, train protocol, stepped from −85 mV to −50 mV): up to 262±26%
- effect on deactivation kinetics of KCNQ2/3 channels (CHO cells): slowed down
